Assay outcomes deposited in PubChem by National Center for Advancing Translational Sciences (NCATS).
Most compounds without a hit are left out; they make up all but 3.7% or so of the library.
ClpP mod: qHTS Assay for Activators of ClpP; ATP-dependent Clp protease proteolytic subunit (Bacillus subtilis (strain 168)), P80244; purified B. subtilis ClpP, FRET peptide cleavage, 20 min; Potency, µM (doses to about 57.5 µM), without a hit: at the top dose activity change, negative = active; 340,000 compounds, 1.9% hits; AID 651965, 2013; active = well fitted falling curve with a large enough effect; inconclusive = small, poorly fitted or top-dose-only effect; inactive = no such curve, though single readings can be large or run the other way; note: potency is the fitted concentration of half-maximal effect; the source files actives as falling curves though it sought activators and does not explain the sign; nearly all actives have a fitted effect of over 65% in size
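ClpP 10 microg/mL final, pH 8 Tris/KCl buffer with BSA, glycerol, Tween-20; compound pinned in; FRET-FV substrate; RT 20 min; Ex320/Em430; ΔFRET vs ADEP 5.8 microM, DMSO, no enzyme.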
Nrf2 inh: Nrf2 pathway inhibition; AID 504444; 360,000 compounds, 2.1% hits; A549 ARE-Fluc reporter, luciferase luminescence, 18-24 h; Potency, µM (series often up to 46 µM), without a hit: at the top dose activity change, negative = inhibition, usual class: inhibitors; note: potency is the fitted concentration of half-maximal effect; % is set by controls: 0 for no effect and ±100 for the full control effect; nearly all actives have a fitted effect of over 60% in size
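Nrf2 function is reported as luminescence of an ARE-controlled luciferase in A549 cells. Compounds were tested at several concentrations, and a CellTiter-Fluor read on the same wells flagged cytotoxicity.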
Nrf2 activator: Nrf2 pathway activation | Potency, µM (series often up to 46.1 µM), without a hit: top-dose activation, usual class: activators | 410,000 compounds, 0.31% hits | AREc32 ARE-luciferase reporter (MCF7-derived line), luminescence, 24 h; note: potency is the fitted concentration of half-maximal effect; % of control where 0% means no effect; nearly all actives have a fitted effect of over 65% in size
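Reporter line AREc32 (ARE-Fluc), seeded overnight in OPTI-MEM with 5% FBS; compound pin-transferred, 24 hr at 37 deg C, 5% CO2; luminescent read-out.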
A549 tox: A549 cytotoxicity, counter-screen for Nrf2 inhibitors; Potency, µM (doses to about 46 µM), inactives show at the top dose activity change, negative = cytotoxicity, usual class: inhibitors; 390,000 compounds, 0.16% hits; A549 ARE-Fluc cells, CellTiter-Fluor viability, 18-24 h; AID 504648; note: potency is the fitted concentration of half-maximal effect; % is set by controls: 0 for no effect and ±100 for the full control effect
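A549 ARE-Fluc cells in 5% FBS OPTI-MEM, 5000 cells/well, rested 2 h then exposed to compounds in concentration-response for 18-24 h at 37 °C. Viability by CellTiter-Fluor fluorescence (Ex 405/Em 525) after 30 min; luciferase luminescence (BugLite, 15 min, RT) read afterwards.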
miR-21 reporter: raises the signal of a miR-21 reporter | AID 2288 | 340,000 tested, under 10 active | Potency, µM (series often up to 38.3 µM), without a hit: at the highest dose reporter change, positive = more light | HeLa miR-21 FLuc reporter, luciferase, 48 h; active = well fitted rising curve with a large enough effect; inconclusive = small, poorly fitted or top-dose-only effect; inactive = no such curve, though single readings can be large or run the other way;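 further: % of control where 0% means no effect; miR-21 action dims this reporter so a rising signal means less miR-21 action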
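HeLa cells endogenously expressing miR-21, stably carrying CMV-driven firefly luciferase with a downstream miR-21 binding site, 2000 cells/well. Titrations up to approximately 40 uM, 48 hours; luciferase luminescence read.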
IL2 activator: activators of IL-2. IL-2 activation reporter assay, cell-based qHTS; stimulated with anti-CD3/CD4/CD28 beads; in transgenic mouse T cells. 360,000 compounds, 0.065% hits. activation, % (series mostly up to about 46 µM); in the data active = activation above about 50%; inconclusive = mostly about 30% to 49%; note: 0% is about no effect
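Unstimulated transgenic mouse T cells; 60-min compound exposure; bead-based TCR/CD4/CD28 stimulation; 18 h culture, 37 degrees C; dual fluorescence (EGFP, DsRed) plate cytometry.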
Active calls of the source: *; ? = inconclusive; / = no result; [ ] = another dose, or the depositor's remark. Unless noted, calls come from the whole dose curve; as a rule, active = well fitted curve in the direction sought with a large enough effect; inconclusive = small, poorly fitted or top-dose-only effect, or another doubt; inactive = no such curve, though single readings can be large; an effect the other way counts as inactive or inconclusive.

molecule,ClpP mod,Nrf2 inh,Nrf2 activator,A549 tox,miR-21 reporter,IL2 activator
CCCN(C(=O)c1cc2c(s1)-c1ccccc1SC2)c1ccccc1F,31.6µM*,?,-1.0%,-14.4%,21.7%,/
Cc1cccc2[nH]cc(/C=C3/C=Nc4ccccc43)c12,-8.9%,/,/,/,/,/
COc1cccc(NC(=O)C(OC(=O)/C=C/c2ccc3c(c2)OCO3)c2ccccc2)c1 (stereo unspecified),31.6µM*,3.8%,3.1%,-4.8%,-0.4%,-0.8
COc1ccc(NC(=O)C(c2ccccc2)N(C)C(=O)/C=C\c2ccc3c(c2)OCO3)cc1 (stereo unspecified),3.6%,2.2%[9.27 µM],1.0%,-10.9%,5.0%,/
Cc1ccc(NS(=O)(=O)c2cc(NC(=O)c3ccc4c(c3)NC(=O)CS4)ccc2C)c(C)c1,/,18.4µM*,3.3%,?,?,1.0
N=c1ccn2c(n1)OC1C(O)C(CO)OC12 (stereo unspecified),1.7%,0.184µM*,-0.4%,-0.4%,6.2%,-1.2
CCSc1oc(-c2cccs2)nc1S(=O)(=O)c1ccc(Br)cc1,?,-14.1%[9.27 µM],0.1%,?,-1.5%,/
Cc1cccc(-n2cnc3c(c2=O)c2nc4ccccc4nc2n3Cc2ccco2)c1,?,/,0.0%,-0.7%,2.4%,0.4
Cc1ccc(S(=O)(=O)c2c(N)n(Cc3ccco3)c3nc4ccccc4nc23)cc1,14.1µM*,18.4µM*,3.3%,/,9.9%,1.3
Cc1cccc(S(=O)(=O)c2c(N)n(Cc3ccco3)c3nc4ccccc4nc23)c1,6.31µM*,?,0.1%,-19.2%,8.9%,2.1

ClpP mod: what is marked active above
SMILES,ClpP mod,miR-21 reporter,IL2 activator
CCCN(C(=O)c1cc2c(s1)-c1ccccc1SC2)c1ccccc1F,31.6µM*,21.7%,/
COc1cccc(NC(=O)C(OC(=O)/C=C/c2ccc3c(c2)OCO3)c2ccccc2)c1 (stereo unspecified),31.6µM*,-0.4%,-0.8
Cc1ccc(S(=O)(=O)c2c(N)n(Cc3ccco3)c3nc4ccccc4nc23)cc1,14.1µM*,9.9%,1.3
Cc1cccc(S(=O)(=O)c2c(N)n(Cc3ccco3)c3nc4ccccc4nc23)c1,6.31µM*,8.9%,2.1

New compounds follow
molecule,ClpP mod,Nrf2 inh,Nrf2 activator,A549 tox,miR-21 reporter,IL2 activator
Cc1ccc(S(=O)(=O)c2c(N)n(-c3ccccc3)c3nc4ccccc4nc23)cc1,/,-18.3%,0.1%,-5.7%,-9.6%,-3.3
CCCCn1c(N)c(S(=O)(=O)c2ccc(C)cc2)c2nc3ccccc3nc21,/,-14.6%,-0.2%,-19.8%,-1.2%,-3.3
Cc1ccc(S(=O)(=O)c2c(N)n(NC(=O)c3ccco3)c3nc4ccccc4nc23)cc1,8.91µM*,-28.5%,-0.2%,-6.5%,2.1%,3.5
Cc1cccc(N(C)C(=O)CSc2nc3ncccc3o2)c1,0.5%,-8.0%,26.9%,0.5%,19.7%,/
Cc1ccc(C)c(N2CCN(C(=O)c3cc(C)nc4c3c(C)nn4-c3ccccc3)CC2)c1,?,-25.0%,-0.1%,1.3%,7.9%,/
Cc1ccc2[nH]cc(C(O)c3c[nH]c4ccc(C)cc34)c2c1,-0.7%,/,/,/,/,/
COC(=O)c1ccccc1NC(=O)C1CCCCC1C(=O)O (stereo unspecified),28.2µM*,/,0.0%,-4.5%,1.0%,-1.8
COc1cccc(Cn2cccc(NC(=O)NC3CCCCC3)c2=O)c1,28.2µM*,-17.8%,-0.6%,-5.4%,-6.4%,-1.2
Cc1ccc(Cn2cccc(NC(=O)NC3CCCCC3)c2=O)cc1,?,?,19.3%,-9.8%,0.6%,-1.0
COc1ccc(NC(=O)c2ccccc2NC(=O)C2CCCCC2C(=O)O)cc1 (stereo unspecified),-4.5%,11.4%,-0.4%,-3.8%,/,0.1
O=C(Nc1cccn(Cc2ccc(F)cc2)c1=O)NC1CCCCC1,17.8µM*,?,5.2%,-7.5%,-10.2%,2.5
O=C(Nc1cccn(Cc2ccccc2)c1=O)NC1CCCCC1,20µM*,-4.0%,2.4%,-0.4%,-12.8%,-0.8
Cc1cccc(NC(=O)Cn2cc(S(=O)(=O)c3ccc(F)cc3)c(=O)c3cc4c(cc32)OCO4)c1,?,4.0%,-0.9%,-1.0%,2.7%,/
Cc1ccc([N+](=O)[O-])cc1S(=O)(=O)N1CCn2cccc2C1c1ccccc1 (stereo unspecified),-0.7%,/,3.7%,1.1%,-1.5%,/
CCN(Cc1nc(-c2ccc(OC)cc2)oc1C)S(=O)(=O)c1ccc(Cl)cc1,-13.7%,/,-0.9%,-0.5%,13.0%,/
